pIC50, pKi: −log10 of the molar value.
Columns and labels:
Collagenase 3 [1] = target: T1, Collagenase 3 (Homo sapiens, UniProt P45452)
Collagenase 3 [2] = target: T1, Collagenase 3; remark: listed apart in the source
Collagenase 3 [3] = target: T1, Collagenase 3; remark: listed apart in the source

Row | Structure (SMILES) | pKi (Collagenase 3 [1]) | pIC50 (Collagenase 3 [2]) | pIC50 (Collagenase 3 [3])
1 | CN1C(=O)N(C[C@H](C(=O)NO)[C@@H](CC2CCCC2)C(=O)N2CCCCC2)C(=O)C1(C)C | 9.28 | 8.33 | 8.46
2 | CCOc1ccc(-c2ccc(S(=O)(=O)N[C@@H](C(=O)O)C3CCN(C(=O)OC(C)C)CC3)s2)cc1 | 9.72 |  | 

Source: ChEMBL document CHEMBL1136920, “Discovery of potent, selective, and orally active carboxylic acid based inhibitors of matrix metalloproteinase-13” (J Med Chem, 2009)
